The values below are quoted from earlier work in US7908091B2, “Methods of predicting and monitoring tyrosine kinase inhibitor therapy” (Prometheus Laboratories Inc., priority 2006, dated 2011).

The conditions of this data set: human, in vivo; cited from earlier work.

SMILES strings stand for the structures.

In the case of `Clc1ccc(Nc2nnc(Cc3ccncc3)c3ccccc23)cc1` [vatalanib], the “most common / toxic side-effects” value is “ataxia, vertigo, hypertension, and venous thromboembolism”.
